Measurements reported in US8975249B2, “Heterocyclic compounds and uses thereof” (Celgene Avilomics Research, Inc., priority 2010, dated 2015).

Target: EGFR T790M/L858R (Homo sapiens (Human), UniProt P00533, L858R/T790M)
Experiment: Omnia biochemical assay, EGFR-T790M/L858R active enzyme
Conditions: for IC50: [ATP]=20 uM, 30 min pre-incubation

Compound	IC50 ([EGFR-T790M/L858R]=2.5 nM)	IC50 ([EGFR-T790M/L858R]=[…])	Ratio WT/mutant (biochemical IC50 WT EGFR / EGFR (T790M/L858R))
C=CC(=O)Nc1cccc(Nc2nc(Nc3ccc(N4CCCOCC4)cc3OC)ncc2C(F)(F)F)c1 [Compound I-38, N-(3-(2-(2-methoxy-4-(1,4-oxazepan-4-yl)phenylamino)-5-(trifluoromethyl)pyrimidin-4-ylamino)phenyl)acrylamide]	< 1 nM		
C=CC(=O)Nc1cccc(Oc2nc(Nc3ccc(N4CCCN(C(=O)OC(C)(C)C)CC4)cc3OC)ncc2C(F)(F)F)c1 [Compound I-39, tert-butyl 4-(4-(4-(3-acrylamidophenoxy)-5-(trifluoromethyl)pyrimidin-2-ylamino)-3-methoxyphenyl)-1,4-diazepane-1-carboxylate]	10 to 30 nM		
C=CC(=O)Nc1cccc(Nc2nc(Nc3ccc(N4CCN(C(C)=O)CC4)cc3OC)ncc2Br)c1 [Compound I-40, N-(3-(2-(4-(4-acetylpiperazin-1-yl)-2-methoxyphenylamino)-5-bromopyrimidin-4-ylamino)phenyl)acrylamide]	1 to 10 nM		
C=CC(=O)Nc1cccc(Nc2nc(Nc3ccc(N4CCN(S(C)(=O)=O)CC4)cc3OC)ncc2Cl)c1 [Compound I-41, N-(3-(5-chloro-2-(2-methoxy-4-(4-(methylsulfonyl)piperazin-1-yl)phenylamino)pyrimidin-4-ylamino)phenyl)acrylamide]	1 to 10 nM		
C=CC(=O)Nc1cccc(Oc2nc(Nc3ccc(N4CCN(C(=O)OC(C)(C)C)CC4)cc3OC)ncc2C(F)(F)F)c1 [Compound I-42, tert-butyl 4-(4-(4-(3-acrylamidophenoxy)-5-(trifluoromethyl)pyrimidin-2-ylamino)-3-methoxyphenyl)piperazine-1-carboxylate]	300 to 1000 nM		
C=CC(=O)Nc1cccc(Oc2nc(Nc3ccc(N4CCCN(C(=O)OC(C)(C)C)CC4)cc3OC)ncc2Cl)c1 [Compound I-43, tert-butyl 4-(4-(4-(3-acrylamidophenoxy)-5-chloropyrimidin-2-ylamino)-3-methoxyphenyl)-1,4-diazepane-1-carboxylate]	1 to 10 nM		
C=CC(=O)Nc1cccc(Nc2nc(Nc3ccc(N4CCCN(C(=O)OC(C)(C)C)CC4)cc3OC)ncc2C(F)(F)F)c1 [Compound I-44, tert-butyl 4-(4-(4-(3-acrylamidophenylamino)-5-(trifluoromethyl)pyrimidin-2-ylamino)-3-methoxyphenyl)-1,4-diazepane-1-carboxylate]	1 to 10 nM		
C=CC(=O)Nc1cccc(Oc2nc(Nc3ccc(N4CCN(C(=O)OC(C)(C)C)CC4)cc3OC)ncc2Cl)c1 [Compound I-46, tert-butyl 4-(4-(4-(3-acrylamidophenoxy)-5-chloropyrimidin-2-ylamino)-3-methoxyphenyl)piperazine-1-carboxylate]	< 1 nM		
C=CC(=O)Nc1cccc(Oc2nc(Nc3ccc(N4CCN(C(=O)OC(C)(C)C)CC4)cc3OC(F)(F)F)ncc2Cl)c1 [Compound I-47, tert-butyl 4-(4-(4-(3-acrylamidophenoxy)-5-chloropyrimidin-2-ylamino)-3-(trifluoromethoxy)phenyl)piperazine-1-carboxylate]	10 to 30 nM		
C=CC(=O)Nc1cccc(Nc2nc(Nc3ccc(N4CCN(C(C)=O)[C@H](C(=O)OC)C4)cc3OC)ncc2C(F)(F)F)c1 [Compound I-48, (S)-methyl 1-acetyl-4-(4-(4-(3-acrylamidophenylamino)-5-(trifluoromethyl)pyrimidin-2-ylamino)-3-methoxyphenyl)piperazine-2-carboxylate]	< 1 nM		
C=CC(=O)Nc1cccc(Nc2nc(Nc3ccc(N4CCS(=O)(=O)CC4)cc3OC)ncc2C(F)(F)F)c1 [Compound I-49, N-(3-(2-(2-methoxy-4,4-dioxo-4-thiomorpholinophenylamino)-5-(trifluoromethyl)pyrimidin-4-ylamino)phenyl)acrylamide]	< 1 nM		
N-(3-(5-chloro-2-(2-methoxy-4-morpholinophenylamino)pyrimidin-4-ylamino)phenyl)acrylamide [Compound I-15]		1 to 10 nM	>15
